The values below are quoted from earlier work in PMC8733726, “Dioctanoyl Ultrashort Tetrabasic β-Peptides Sensitize Multidrug-Resistant Gram-Negative Bacteria to Novobiocin and Rifampicin” (Frontiers in Microbiology, 2021).

The conditions of this series: ref Chen and Lu, 2020; cited from earlier work.

For the substance daptomycin, the “In vivo elimination half-life” value was 8 to 9 h.
